Permeability data for macrocyclic peptides

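The data file gives no further conditions (lipid, pH, time, direction or concentration), and values from different papers need not be comparable. The list need not hold all peptides of the study. Peptides that the database sets to -10, its floor, are left out.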

PAMPA is the parallel artificial membrane permeability assay, which has no cells and reads passive diffusion. P is given in units of 10^-6 cm/s (from log10 values with two decimals); larger means faster passage.

* CCCN1CC(=O)N[C@H](CC(C)C)C(=O)N[C@H](CC(C)C)C(=O)N2CCC[C@@H]2C(=O)N(Cc2ccccc2)CC(=O)N[C@@H](Cc2ccccc2)C(=O)N2CCC[C@@H]2C1=O: PAMPA 3.2 × 10^-6 cm/s
* CC(C)C[C@@H]1C(=O)N(Cc2ccccc2)CC(=O)N2CCC[C@H]2C(=O)N(C)[C@H](CC(C)C)C(=O)N[C@@H](Cc2ccccc2)C(=O)N[C@H](C)C(=O)N1C: PAMPA 1.3 × 10^-6 cm/s
* CC(C)C[C@@H]1C(=O)N[C@@H](Cc2ccccc2)C(=O)N2CCC[C@@H]2C(=O)N[C@@H](C)C(=O)N[C@H](CC(C)C)C(=O)N(Cc2ccccc2)CC(=O)N2CCC[C@@H]2C(=O)N1C: PAMPA 2.4 × 10^-6 cm/s
* CC(C)C[C@@H]1NC(=O)[C@H](C)N(C)C(=O)[C@@H]2CCCN2C(=O)[C@H](Cc2ccccc2)NC(=O)CN(Cc2ccccc2)C(=O)[C@@H]2CCCN2C(=O)[C@@H](CC(C)C)NC1=O: PAMPA 0.074 × 10^-6 cm/s
* CCCN1CC(=O)N(C)[C@H](CC(C)C)C(=O)N(C)[C@@H](CC(C)C)C(=O)N2CCC[C@@H]2C(=O)N[C@H](CC(C)C)C(=O)N[C@@H](Cc2ccccc2)C1=O: PAMPA 9.1 × 10^-6 cm/s
* CCCN1CC(=O)N[C@H](CC(C)C)C(=O)N(Cc2ccccc2)CC(=O)N2CCC[C@H]2C(=O)N[C@@H](CC(C)C)C(=O)N[C@@H](Cc2ccccc2)C1=O: PAMPA 2.8 × 10^-6 cm/s
* CC(C)C[C@H]1C(=O)N[C@@H](Cc2ccccc2)CC(=O)N2CCC[C@H]2C(=O)N(C)[C@@H](CC(C)C)C(=O)N[C@@H](Cc2ccccc2)C(=O)N2CCC[C@H]2C(=O)N[C@@H](C)C(=O)N1C: PAMPA 1.7 × 10^-6 cm/s
* CC(C)C[C@H]1C(=O)N(C)[C@@H](CC(C)C)C(=O)N2CCC[C@H]2C(=O)N(Cc2ccccc2)CC(=O)N[C@@H](Cc2ccccc2)C(=O)N2CCC[C@H]2C(=O)N[C@@H](C)C(=O)N1C: PAMPA 6.9 × 10^-6 cm/s
* CCCN1CC(=O)N[C@@H](CC(C)C)C(=O)N[C@H](CC(C)C)C(=O)N2CCC[C@@H]2C(=O)N(C)[C@@H](CC(C)C)C(=O)N[C@@H](Cc2ccccc2)C(=O)N2CCC[C@H]2C1=O: PAMPA 6.2 × 10^-6 cm/s
* CC(C)C[C@@H]1NC(=O)[C@@H](C)N(C)C(=O)[C@H](Cc2ccccc2)NC(=O)CN(Cc2ccccc2)C(=O)[C@H]2CCCN2C(=O)CN(Cc2ccccc2)C1=O: PAMPA 1.9 × 10^-6 cm/s
* CC(C)C[C@@H]1C(=O)N[C@@H](Cc2ccccc2)C(=O)N[C@@H](Cc2ccccc2)CC(=O)N(C)[C@@H](CC(C)C)C(=O)N(C)[C@@H](CC(C)C)C(=O)N2CCC[C@@H]2C(=O)N1C: PAMPA 6.2 × 10^-6 cm/s
* CC(C)C[C@@H]1C(=O)N[C@@H](Cc2ccccc2)C(=O)N2CCC[C@H]2C(=O)N(C)[C@H](C)C(=O)N(Cc2ccccc2)CC(=O)N[C@H](CC(C)C)C(=O)N2CCC[C@H]2C(=O)N1C: PAMPA 4 × 10^-6 cm/s
* CC(C)C[C@@H]1NC(=O)C[C@H](Cc2ccccc2)NC(=O)[C@H](Cc2ccccc2)NC(=O)[C@@H](CC(C)C)N(C)C(=O)[C@H]2CCCN2C(=O)[C@H](CC(C)C)NC1=O: PAMPA 4.4 × 10^-6 cm/s
* CC(C)C[C@@H]1NC(=O)[C@@H](CC(C)C)NC(=O)[C@@H](C)NC(=O)[C@H]2CCCN2C(=O)[C@H](Cc2ccccc2)NC(=O)[C@@H](CC(C)C)NC(=O)[C@H]2CCCN2C1=O: PAMPA 0.85 × 10^-6 cm/s
* CC(C)C[C@@H]1NC(=O)[C@H]2CCCN2C(=O)[C@H](CC(C)C)N(C)C(=O)[C@H](CC(C)C)NC(=O)[C@@H](C)N(C)C(=O)[C@H]2CCCN2C(=O)[C@H](Cc2ccccc2)NC1=O: PAMPA 1.1 × 10^-6 cm/s

Excerpt, the opening 2 entries:

structure (SMILES)	PAMPA (10^-6 cm/s)
CCCN1CC(=O)N[C@H](CC(C)C)C(=O)N[C@H](CC(C)C)C(=O)N2CCC[C@@H]2C(=O)N(Cc2ccccc2)CC(=O)N[C@@H](Cc2ccccc2)C(=O)N2CCC[C@@H]2C1=O	3.2
CC(C)C[C@@H]1C(=O)N(Cc2ccccc2)CC(=O)N2CCC[C@H]2C(=O)N(C)[C@H](CC(C)C)C(=O)N[C@@H](Cc2ccccc2)C(=O)N[C@H](C)C(=O)N1C	1.3

Values of Townsend et al. 2020, doi:10.26434/chemrxiv.13335941.v1, as listed in CycPeptMPDB.